Measurements as given in patent US8778872B2 (priority 2010, dated 2014).

Sequences of proteins named here, by UniProt entry; tags and fusion partners are left off. Residues count along the entry.
UniProt P43220, 24-463, species assumed: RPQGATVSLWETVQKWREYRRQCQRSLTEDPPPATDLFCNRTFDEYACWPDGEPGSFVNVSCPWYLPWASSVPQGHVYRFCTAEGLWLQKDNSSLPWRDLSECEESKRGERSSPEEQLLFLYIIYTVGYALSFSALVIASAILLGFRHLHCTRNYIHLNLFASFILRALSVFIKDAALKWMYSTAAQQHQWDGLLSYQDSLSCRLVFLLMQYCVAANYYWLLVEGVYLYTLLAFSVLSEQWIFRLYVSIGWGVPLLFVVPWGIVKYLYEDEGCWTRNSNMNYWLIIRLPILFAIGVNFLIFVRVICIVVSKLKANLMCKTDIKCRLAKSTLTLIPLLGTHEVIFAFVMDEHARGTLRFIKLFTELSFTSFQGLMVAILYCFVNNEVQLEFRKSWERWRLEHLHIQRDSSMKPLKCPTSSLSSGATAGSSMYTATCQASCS

Biological target: GLP-1 receptor (Homo sapiens, UniProt P43220)
Test: Luciferase-based reporter gene assay for cAMP detection, HEK293 cells co-transfected with GLP-1 receptor (prodrug samples pre-incubated in PBS or plasma)
Details: plasma

CC[C@H](C)[C@H](NC(=O)[C@H](Cc1ccccc1)NC(=O)[C@H](CCC(=O)O)NC(=O)[C@H](CCCCN)NC(=O)[C@H](C)NC(=O)[C@H](C)NC(=O)[C@H](CCC(N)=O)NC(=O)CNC(=O)[C@H](CCC(=O)O)NC(=O)[C@H](CC(C)C)NC(=O)[C@H](Cc1ccc(O)cc1)NC(=O)[C@H](CO)NC(=O)[C@H](CO)NC(=O)[C@@H](NC(=O)[C@H](CC(=O)O)NC(=O)[C@H](CO)NC(=O)[C@@H](NC(=O)[C@H](Cc1ccccc1)NC(=O)[C@@H](NC(=O)CNC(=O)[C@H](CCC(=O)O)NC(=O)[C@H](C)NC(=O)[C@H](Cc1c[nH]cn1)NC(=O)CN(C)C(=O)[C@H](N)CCCCN)[C@@H](C)O)[C@@H](C)O)C(C)C)C(=O)N[C@@H](CS)C(=O)N[C@@H](Cc1c[nH]c2ccccc12)C(=O)N[C@@H](CC(C)C)C(=O)N[C@H](C(=O)N[C@@H](CCCCN)C(=O)NCC(=O)N[C@@H](CCCNC(=N)N)C(N)=O)C(C)C [dLys^−1-Sar^0,C^24GLP(7-36)]
half-life: ~10 h
